In this experiment the target is Aβ 1-40 peptide (UniProt P05067). Description: ELISA; Aβ1-40 peptide coated on Maxisorp plates (0.1 µg/ml, bicarbonate buffer pH 9.6); antibodies serially diluted in PBS/1 % BSA, 1 h at room temperature; detected with biotinylated anti-mouse IgG and streptavidin poly-HRP; relative affinity. (An ELISA detects its analyte on a solid surface through an enzyme-linked reagent.)

For the substance “3D6 (murine parent antibody of Bapineuzumab), recombinant with mouse IgG2a constant region (antibody; other documents disagree on this pair)”, the EC50 (commonly the concentration giving half of the maximal effect) is 0.17 pM.

(Values after PMC4612324.)
